Experimental data from US6506754B1, “Non-covalent thrombin inhibitors” (dated 2003).
pIC50, pKi: −log10 of the molar value.

Amino acid sequences for entries named in this document (tags omitted). Residues count along the entry.
UniProt P00760, 24-246 limits assumed: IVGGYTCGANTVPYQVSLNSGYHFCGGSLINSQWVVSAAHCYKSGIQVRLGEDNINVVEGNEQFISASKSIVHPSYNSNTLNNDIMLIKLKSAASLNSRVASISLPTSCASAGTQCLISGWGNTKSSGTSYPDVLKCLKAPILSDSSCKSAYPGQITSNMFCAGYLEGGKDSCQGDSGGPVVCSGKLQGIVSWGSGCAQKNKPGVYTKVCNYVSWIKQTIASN
UniProt P00742, 41-179 limits assumed: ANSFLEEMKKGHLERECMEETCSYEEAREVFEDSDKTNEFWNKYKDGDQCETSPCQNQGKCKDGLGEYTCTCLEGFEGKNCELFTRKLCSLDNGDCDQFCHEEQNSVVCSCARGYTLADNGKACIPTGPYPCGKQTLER
UniProt P00742, 235-488 limits assumed: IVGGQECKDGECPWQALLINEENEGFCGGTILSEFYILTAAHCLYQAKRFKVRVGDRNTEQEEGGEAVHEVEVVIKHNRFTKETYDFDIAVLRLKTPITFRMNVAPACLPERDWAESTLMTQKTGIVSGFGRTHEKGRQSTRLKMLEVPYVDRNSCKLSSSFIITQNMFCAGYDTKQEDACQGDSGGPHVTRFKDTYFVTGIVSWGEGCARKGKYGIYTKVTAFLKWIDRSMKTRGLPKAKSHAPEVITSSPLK

Experiments:
[1] = molecular target: bovine pancreatic trypsin (Bos taurus, UniProt P00760); assay: Trypsin chromogenic substrate assay; details: read-out: Trypsin IC50
Factor Xa = Factor Xa (Homo sapiens, UniProt P00742); assay: Factor Xa chromogenic substrate assay; details: read-out: fXa IC50
human α-thrombin = human α-thrombin (Homo sapiens, UniProt P00734); assay: Thrombin (fIIa) chromogenic substrate assay; details: for pIC50: read-out: fIIa IC 50 (0 min), 0 min; for pKi: read-out: fIIa Ki

Compound | pIC50 [1] | pIC50 (Factor Xa) | pIC50 (human α-thrombin) | pKi (human α-thrombin)
Cc1cnc(NCCc2ccccc2)c(=O)n1CC(=O)NCC1CN=C(N)NC1 (stereo not drawn) | < 4.00 | < 4.00 | > 7.00 | > 7.00
Cc1nc(N)ncc1CNC(=O)Cn1c(C)ccc(NS(=O)(=O)c2ccc3c(c2)OCCO3)c1=O | < 4.00 | < 4.00 | 5.60 to 6.52 | > 7.00
Cc1ccc(NS(=O)(=O)Cc2ccccc2)c(=O)n1CC(=O)NCc1cnc(N)cn1 | < 5.60 | < 5.60 | 5.60 to 6.52 | 6.40 to 7.00
Cc1nc(N)ncc1CNC(=O)Cn1c(C)ccc(NS(=O)(=O)Cc2ccccc2)c1=O | < 4.00 | < 4.00 | 5.60 to 6.52 | > 7.00
Cc1cnc(NCCc2ccccc2)c(=O)n1CC(=O)NCC1CN=C(N)NC1C (stereo not drawn) | < 4.00 | < 4.00 | > 7.00 | > 7.00
Cc1ccc(NS(=O)(=O)Cc2ccccc2)c(=O)n1CC(=O)NCC1CN=C(N)NC1C (stereo not drawn) | < 4.00 | < 4.00 | > 7.00 | > 7.00
Cc1nc(N)nc(C)c1CNC(=O)Cn1c(C)ccc(NS(=O)(=O)Cc2ccccc2)c1=O | < 4.00 | < 4.00 | 5.60 to 6.52 | 6.40 to 7.00
Cc1nc(N)ncc1CNC(=O)Cn1c(C)ccc(NCCc2ccccc2)c1=O | < 4.00 | < 4.00 | 5.60 to 6.52 | 6.40 to 7.00
Cc1ccc(NS(=O)(=O)Cc2ccccc2)c(=O)n1CC(=O)NCC1CN=C(N)NC1 (stereo not drawn) | < 4.00 | < 4.00 | > 7.00 | > 7.00
